# This is a selection; strong and weak results do not stand in their true shares. Calls of active or inactive are those of the source. Calls follow the shape of the dose curve; as a rule, active = well fitted curve in the direction sought with a large enough effect; inactive = no such curve, though single readings can be large or run the other way.
# By UniProt entry, the sequences of proteins in these tests, tags left out.
# UniProt P14618, whole entry, looked up: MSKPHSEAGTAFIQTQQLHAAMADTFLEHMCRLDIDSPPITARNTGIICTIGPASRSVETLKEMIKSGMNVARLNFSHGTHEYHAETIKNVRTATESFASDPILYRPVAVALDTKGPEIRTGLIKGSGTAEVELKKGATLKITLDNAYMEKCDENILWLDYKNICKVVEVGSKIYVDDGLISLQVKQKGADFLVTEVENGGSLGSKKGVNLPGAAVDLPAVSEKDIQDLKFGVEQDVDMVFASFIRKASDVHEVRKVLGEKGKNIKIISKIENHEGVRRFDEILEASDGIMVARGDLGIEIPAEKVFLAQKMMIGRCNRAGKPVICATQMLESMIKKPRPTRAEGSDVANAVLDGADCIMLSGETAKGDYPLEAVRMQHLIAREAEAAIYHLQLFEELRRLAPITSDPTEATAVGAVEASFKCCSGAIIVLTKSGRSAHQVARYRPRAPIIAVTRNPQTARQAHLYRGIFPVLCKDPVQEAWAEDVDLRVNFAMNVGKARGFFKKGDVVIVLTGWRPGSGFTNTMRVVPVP
# Target: Pyruvate kinase PKM (Homo sapiens) (UniProt P14618)
# Experiment: qHTS for Activators of Human Muscle Isoform 2 Pyruvate Kinase: Extended Characterization Using A Lactate Dehydrogenase (LDH) Assay Probe 2
# Details: purified hPK-M2, LDH-coupled NADH fluorescence kinetic
# Text: Human pyruvate kinase muscle 2 (hPK-M2)enzyme was supplied as a highly purified (>95% pure) preparation from Harvard Medical School and a secondary assay was used to evaluate compounds. This assay couples the formation of pyruvate from hPK-M2 using lactate dehydrogenase (LDH) and NADH. The depletion of NADH is followed in a fluorescent-based kinetic assay that follows the formation of pyruvate to lactate, as catalyzed LDH (described by Hannaert et al., 2002)1 Pyruvate kinase substrates, PEP and ADP, were present in the assay at 0.1 mM and 4 mM respectively. In this kinetic assay initial rates were determined by following the fluorescence of NADH depletion. NIH Chemical Genomics Center [NCGC] NIH Molecular Libraries Probe Centers Network [MLPCN] MLPCN Grant: MH085679 Assay Submitter (PI): Matthew G. Vander Heiden, Harvard Medical School
# Three uL of substrate mix (final concentration, 50 mM Tris-Cl pH 8.0, 200 mM KCl, 15 mM MgCl2, 0.1 mM PEP, 4.0 mM ADP, and 0.2 mM NADH) was dispensed into black-solid 1536 well plates. 23 nL of compounds were delivered by a pin tool and 1 uL of enzyme mix (final concentrations, 10 nM hPK-M2 and 1 uM of LDH) was added. Plates were immediately placed in ViewLux (Perkin Elmer) and NADH fluorescence was determined at 30 second exposure intervals for between 3 and 6 minutes. […]
row,Structure (SMILES),Potency
1,Nc1cccc(S(=O)(=O)N2CCCN(S(=O)(=O)c3ccc4c(c3)OCCO4)CC2)c1,active: 91.9 nM

# Source: PubChem BioAssay AID624389 (National Center for Advancing Translational Sciences (NCATS), 2012)
